PKM2 activator – activators of human pyruvate kinase M2 | Potency, µM (top dose mostly 57.5 µM), hits mostly activators | purified PKM2, Kinase-Glo ATP luminescence, activation; response scale: 0% is enzyme alone, no compound | P14618 | hit rate 0.34% among 260,000 | AID 1631; note: nearly all actives have a fitted effect of over 55% in size
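Kinase-Glo luminescence reports ATP generated from ADP (0.1 mM) and PEP (0.5 mM) by purified hPK-M2 after 1 h at room temperature, pH 7.2 imidazole buffer; intermediate enzyme activity allows detecting inhibitors and activators.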
Pin1 inhibitor – blocks the human prolyl isomerase Pin1. Pin1 FP peptide displacement, HiFluor488, 10 min. Potency, µM (series often up to 115 µM), most hits filed as inhibitors. hit rate 0.009% among 390,000; active = well fitted inhibition curve with a large enough effect in the polarisation, with a control signal flat, not every such curve was filed as active; inconclusive = small, poorly fitted or top-dose-only effect, or effect the other way, or a change in a side signal; inactive = no such curve, though single readings can be large or run the other way; the % refers to the polarisation
B2AR arrestin – agonists driving beta-arrestin recruitment to human beta2-adrenergic receptor; P07550; beta-arrestin recruitment to beta2AR, cell-based reporter; Potency, µM (series often up to 46.1 µM), usual class: activators; hit rate 0.02% among 330,000; AID 492947; note: nearly all actives have a fitted effect of over 65% in size
Chronic BCR inh – blocks chronic active B-cell receptor signaling; ABC-DLBCL IkBa-CBG/CBR reporter, luminescence ratio, 4 h; hit rate 0.05% among 340,000; AID 493014; Potency, µM (series often up to 46.1 µM), usual class: inhibitors; active = well fitted inhibition curve with a large enough effect in the signal ratio, with a control signal flat, not every such curve was filed as active; inconclusive = small, poorly fitted or top-dose-only effect, or effect the other way, or a change in a side signal; the % refers to the signal ratio
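Compounds up to 46 uM were incubated four hours with TMD8 cells whose green CBG68 luciferase is fused to IkappaBalpha; red CBR luminescence normalised the signal, and concentration-effect curves were fitted to fusion, red and ratio data.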
miR-21 reporter – raises the signal of a miR-21 reporter | HeLa miR-21 FLuc reporter, luciferase, 48 h | Potency, µM (doses to about 38.3 µM) | 340,000 tested, under 10 active | AID 2288; active = well fitted rising curve with a large enough effect; inconclusive = small, poorly fitted or top-dose-only effect; inactive = no such curve, though single readings can be large or run the other way;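 also: miR-21 action dims this reporter so a rising signal means less miR-21 action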
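Luminescence from a firefly luciferase reporter carrying a miR-21 binding site downstream, stably expressed under a CMV promoter in HeLa cells that make miR-21 endogenously, reports miRNA modulation after 48 h compound exposure up to approximately 40uM final.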
PINK1 expr mod – PINK1 expression modulation. hit rate 0.2% among 410,000. Potency, µM (highest dose often 76.6 µM), most hits filed as activators. PINK1 immunofluorescence, high-content cytometry, 24 h; active = well fitted activation curve with a large enough effect; inconclusive = small, poorly fitted or top-dose-only effect; cell line not stated here; note: nearly all actives have a fitted effect of over 65% in size
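Stable cell line treated 24 h with compounds at 5 concentrations (CCCP controls), then fixed and immunostained for PINK1 plus nuclear and cell stains; PINK1 immunofluorescence quantified by laser-scanning microplate cytometry.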
Numbers stand for hits. An excerpt weighted towards active compounds, which were near 0.46% of everything screened. Unless noted, calls come from the whole dose curve; as a rule, active = well fitted curve in the direction sought with a large enough effect; inconclusive = small, poorly fitted or top-dose-only effect, or another doubt; inactive = no such curve, though single readings can be large; an effect the other way counts as inactive or inconclusive.

Cc1cc(C)n(-c2nc3ccccc3nc2N2CCN(S(=O)(=O)c3ccc(F)c(C)c3)CC2)n1 was read as PKM2 activator 10µM, Pin1 inhibitor inactive, B2AR arrestin inactive, Chronic BCR inh inactive and miR-21 reporter inactive.
For Cc1cc(C)n(-c2nc3ccccc3nc2N2CCN(S(=O)(=O)c3ccc4ccccc4c3)CC2)n1 the results were PKM2 activator inactive, Pin1 inhibitor inactive, B2AR arrestin inactive, Chronic BCR inh inactive, miR-21 reporter inactive and PINK1 expr mod inactive.
`CC(=O)Nc1nc2ccc(-c3nc4ccccc4o3)cc2s1` gave PKM2 activator inactive, Pin1 inhibitor inactive, B2AR arrestin inactive, Chronic BCR inh 15µM, miR-21 reporter inactive and PINK1 expr mod inactive.
O=C(CSc1ccc2ccccc2c1)Nc1ccncc1 was read as PKM2 activator inactive, Pin1 inhibitor inactive, B2AR arrestin inactive, Chronic BCR inh inconclusive, miR-21 reporter inactive and PINK1 expr mod 13µM.
COc1ccc(C2c3ccc(OCc4ccccc4)cc3Oc3ncn(CCN4CCOCC4)c(=N)c32)cc1OC (configuration not stated) was read as Pin1 inhibitor inactive.
For COc1ccc(-n2cnc3c(c2=N)C(c2cccc(OC)c2)c2c(ccc4ccccc24)O3)cc1 (configuration not stated) the results were Pin1 inhibitor inactive.
CCN1CCN(C(=O)c2sc3ncnc(NCC4CCCO4)c3c2C)CC1 (configuration not stated) was read as PINK1 expr mod inactive.
Screening COc1ccc(COC(=O)NC2CCN(S(=O)(=O)c3ccc(OC)cc3)CC2)cc1 returned PKM2 activator 20µM, Pin1 inhibitor inactive, B2AR arrestin inactive, Chronic BCR inh inactive, miR-21 reporter inactive and PINK1 expr mod inactive.
For COc1ccc(CNC(=O)C2=CCN(S(=O)(=O)c3ccc(C)cc3)CC2)cc1 the results were PKM2 activator 14µM, Pin1 inhibitor inactive, B2AR arrestin inactive, Chronic BCR inh inactive, miR-21 reporter inactive and PINK1 expr mod inactive.
`COc1ccc(CNC(=O)N2CCN(S(=O)(=O)c3ccccc3)CC2)cc1` gave Pin1 inhibitor inactive, B2AR arrestin inactive, Chronic BCR inh inactive, miR-21 reporter inactive and PINK1 expr mod inactive.
For COc1ccc(S(=O)(=O)N2CCC(NC(=O)OCc3c(Cl)cccc3Cl)CC2)cc1 the results were PKM2 activator inconclusive, Pin1 inhibitor inactive, B2AR arrestin inactive, Chronic BCR inh inactive, miR-21 reporter inactive and PINK1 expr mod inactive.
`COc1ccc(S(=O)(=O)N2CCN(C(=O)NCc3ccccc3)CC2)cc1` gave PKM2 activator 7.1µM, Pin1 inhibitor inactive, B2AR arrestin inactive, Chronic BCR inh inactive, miR-21 reporter inactive and PINK1 expr mod inactive.
Screening COc1ccc2ccccc2c1CN1CCC2(CCC(CNC(=O)c3ccccc3)O2)CC1 (configuration not stated) returned PINK1 expr mod inactive.
Cc1cccc(NC(=O)CN2C(=O)S/C(=C\c3ccc(O)c([N+](=O)[O-])c3)C2=O)c1 was read as PKM2 activator inconclusive, Pin1 inhibitor inconclusive, B2AR arrestin inactive, Chronic BCR inh inconclusive, miR-21 reporter inactive and PINK1 expr mod inactive.
O=C1S/C(=C\c2ccc(O)c([N+](=O)[O-])c2)C(=O)N1Cc1cccc([N+](=O)[O-])c1 was read as PKM2 activator inactive, Pin1 inhibitor inconclusive, B2AR arrestin inactive, Chronic BCR inh inconclusive, miR-21 reporter inactive and PINK1 expr mod 40µM.
`O=C1/C(=C\c2cc([N+](=O)[O-])ccc2O)SC(=S)N1Cc1ccc(Cl)cc1` gave Pin1 inhibitor inconclusive, B2AR arrestin inactive, Chronic BCR inh inactive, miR-21 reporter inactive and PINK1 expr mod 14µM.
COc1ccc(CN2CCOc3ccc(CN4CCC(Oc5cccnc5)CC4)cc3C2)c(F)c1 was read as PINK1 expr mod inactive.
`c1ccc(P(c2ccccc2)c2cnc3ccccn23)cc1` gave Pin1 inhibitor inactive.
`CCn1nc(C)c(C(=O)Nc2cc(Oc3ccc(Cl)cc3)cc([N+](=O)[O-])c2)c1C` gave PKM2 activator inactive, Pin1 inhibitor inactive, B2AR arrestin inactive, Chronic BCR inh inactive, miR-21 reporter inactive and PINK1 expr mod 10µM.
CCSc1nnc(NC(=O)C(C)(C(F)(F)F)C(F)(F)F)s1 was read as PKM2 activator inactive, Pin1 inhibitor inactive, B2AR arrestin inactive, Chronic BCR inh inconclusive, miR-21 reporter inactive and PINK1 expr mod 25µM.
Screening CCOc1cccc(N)c1 returned Pin1 inhibitor inactive, B2AR arrestin 16µM, Chronic BCR inh inconclusive and PINK1 expr mod inactive.
Screening COc1ccc(/C=N/NC(=O)CCn2cnc(-c3ccccc3)c2-c2ccccc2)cc1 returned PKM2 activator inactive, Pin1 inhibitor inactive, B2AR arrestin inactive, Chronic BCR inh 23µM, miR-21 reporter inactive and PINK1 expr mod inactive.
For O=C(CCn1cnc(-c2ccccc2)c1-c1ccccc1)N/N=C/c1ccc(O)cc1 the results were PKM2 activator inactive, Pin1 inhibitor inactive, B2AR arrestin inactive, Chronic BCR inh inactive, miR-21 reporter inactive and PINK1 expr mod inactive.
For CN(C)CC(C)(O)c1ccc2c(c1)CN(Cc1cn(C)c3ccccc13)CCO2 (configuration not stated) the results were PINK1 expr mod inactive.
Screening COc1ccc(/C=C/C(=O)N2CCc3c(cnc(C)c3CNC(=O)c3ccsc3)C2)cc1OC returned PINK1 expr mod inactive.
Screening COc1ccc(S(=O)(=O)N2CCCCCC2)cc1C(=O)OCc1c(C)noc1C returned PKM2 activator inactive, Pin1 inhibitor inactive, B2AR arrestin inactive, Chronic BCR inh inactive, miR-21 reporter inactive and PINK1 expr mod inactive.
`COc1ccc(S(=O)(=O)N2CCc3ccccc32)cc1C(=O)OCc1c(C)noc1C` gave PKM2 activator 11µM, Pin1 inhibitor inactive, B2AR arrestin inactive, Chronic BCR inh inconclusive, miR-21 reporter inactive and PINK1 expr mod inactive.
c1ccc2c(N3CCCCCC3)nc(CN3CCCCC3c3nccs3)nc2c1 (configuration not stated) was read as PINK1 expr mod inactive.
Cc1ccc(C(=O)C2=C(O)C(=O)N(c3ncccn3)C2c2cccc(Cl)c2)o1 (configuration not stated) was read as PKM2 activator 6.3µM, B2AR arrestin inactive, Chronic BCR inh inactive and miR-21 reporter inactive.
Screening Cc1cc(C)n2cc(CSc3nnnn3-c3ccccc3C)nc2n1 returned PKM2 activator 14µM, Pin1 inhibitor inactive, B2AR arrestin inactive, Chronic BCR inh inactive, miR-21 reporter inactive and PINK1 expr mod inactive.
For Cc1ccnc(SCc2cn3c(C)cc(C)nc3n2)n1 the results were PKM2 activator inactive, Pin1 inhibitor inactive, B2AR arrestin inactive, Chronic BCR inh inactive, miR-21 reporter inactive and PINK1 expr mod inactive.
